# Columns and labels:
# Chains of the proteins cited; added tags and fusions are not shown. Residues count along the entry.
# UniProt P22303, 32-614: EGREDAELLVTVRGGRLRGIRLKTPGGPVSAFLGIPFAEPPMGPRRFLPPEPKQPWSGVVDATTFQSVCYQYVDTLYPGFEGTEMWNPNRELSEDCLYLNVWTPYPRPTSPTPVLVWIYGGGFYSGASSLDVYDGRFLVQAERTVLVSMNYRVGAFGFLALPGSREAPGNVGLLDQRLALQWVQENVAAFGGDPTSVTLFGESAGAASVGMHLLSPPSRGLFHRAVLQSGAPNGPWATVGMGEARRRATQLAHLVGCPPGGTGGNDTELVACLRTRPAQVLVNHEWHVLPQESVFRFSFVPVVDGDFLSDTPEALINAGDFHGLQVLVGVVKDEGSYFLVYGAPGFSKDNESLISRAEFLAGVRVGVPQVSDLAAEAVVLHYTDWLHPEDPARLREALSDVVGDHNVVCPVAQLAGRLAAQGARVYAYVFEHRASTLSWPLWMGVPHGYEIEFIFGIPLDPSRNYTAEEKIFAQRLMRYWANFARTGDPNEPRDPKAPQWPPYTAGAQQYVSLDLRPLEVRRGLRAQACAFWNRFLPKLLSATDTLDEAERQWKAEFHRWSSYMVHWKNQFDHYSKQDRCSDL
# [1] = molecular target: α-acetylcholinesterase (AChE) (Homo sapiens, UniProt P22303); type: biochemical; details: read-out: Inhibition of AChE IC50; phosphate buffer pH 7.0, 37 °C, triplicate
# Protocol: α-Acetylcholinesterase inhibitory activity was assayed using 50 mM phosphate buffer (pH 7.0). […] 10 μL of sample solution and 10 μL of α-acetylcholinesterase solution (2 units mL^−1, in the phosphate buffer at pH 7.0) were added to 960 μL of phosphate buffer and incubated at 37 °C for 30 min, and then 20 μL of substrate were added to initiate the enzyme reaction. The enzyme reaction was carried out at 37 °C for 30 min. Product was monitored spectrophotometrically by measuring the absorbance (λ = 400 nm). Huperzine A was used as reference standard inhibitor for comparison. Dose-response curves were obtained by performing assays in the presence of increasing concentrations of inhibitors. IC50 value was determined by interpolation of the dose-response curves. For all tests, the inhibition assays were performed in triplicate.
# [2] = system: cervix carcinoma cells (Hela); details: MTT
# Protocol: (§1) IC50 of these compounds were determined by the MTT assay (see Table 2).
# (§2) The cytotoxic activities were determined using MCF-7, A549, Hela, KB human tumor cells by the MTT colorimetric method. […] Subsequently 20 μL of MTT solution (5 mg/mL) were added to each well and mixed, the cells were then incubated for an additional 4 h. Culture supernatant were removed, 150 μL of DMSO were added to each well to fully dissolve the MTT—formazan crystals. Cell growth inhibition was determined by measuring the absorbance (Abs) at λ = 570 nm using a microplate reader and calculated according to the following equation: Growth inhibition = (1 − OD of treated cells/OD of control cells) × 100% (1)
# (§3) The half maximal inhibitory concentrations (IC50) were obtained from linear regression analysis of the concentration-response curves plotted for each tested compound (Bliss’s software). Results were expressed as the mean value of triplicate data points.
# lung cancer cells (A549) = system: lung cancer cells (A549)
# Protocol: as §1, §2, §3
# [3] = system: human breast cancer cells (MCF-7); details: MCF-7 cells, MTT
# Protocol: as §1, §2, §3
# [4] = system: human nasopharyngeal carcinoma cells (KB)
# Protocol: as §1, §2, §3
substance,measurement,setting,value
beauvericin [Compound 10],IC50,[1],3090 nM
same,cytotoxic / inhibitory activity against Hela (in words),[2],strong or moderate cytotoxic activies
same,cytotoxic / inhibitory activity against A549 (in words),lung cancer cells (A549); MTT,strong or moderate cytotoxic activies
same,IC50,"lung cancer cells (A549); read-out: Cytotoxicity IC50 A549, MTT",820 nM
same,cytotoxic / inhibitory activity against MCF-7 (in words),[3],strong or moderate cytotoxic activies
same,cytotoxic / inhibitory activity against KB (in words),[4]; MTT,strong or moderate cytotoxic activies
same,IC50,"[4]; read-out: Cytotoxicity IC50 KB, MTT",1100 nM

# — PMC3736441 (Marine Drugs, 2013)
